This assay addresses malonyl-CoA decarboxylase prepared from rat heart (Rattus norvegicus, UniProt Q920F5). The assay is described as follows: In vitro MCD inhibitory assay (spectrophotometric, 96 well). It counts as biochemical. Particulars: read-out: IC50 of the MCD inhibitors, concentration causing 50% inhibition of MCD activity.

The chains behind the UniProt entries cited, without tags or fusion partners. Residues count along the entry.
UniProt Q920F5, 39-492 limits assumed: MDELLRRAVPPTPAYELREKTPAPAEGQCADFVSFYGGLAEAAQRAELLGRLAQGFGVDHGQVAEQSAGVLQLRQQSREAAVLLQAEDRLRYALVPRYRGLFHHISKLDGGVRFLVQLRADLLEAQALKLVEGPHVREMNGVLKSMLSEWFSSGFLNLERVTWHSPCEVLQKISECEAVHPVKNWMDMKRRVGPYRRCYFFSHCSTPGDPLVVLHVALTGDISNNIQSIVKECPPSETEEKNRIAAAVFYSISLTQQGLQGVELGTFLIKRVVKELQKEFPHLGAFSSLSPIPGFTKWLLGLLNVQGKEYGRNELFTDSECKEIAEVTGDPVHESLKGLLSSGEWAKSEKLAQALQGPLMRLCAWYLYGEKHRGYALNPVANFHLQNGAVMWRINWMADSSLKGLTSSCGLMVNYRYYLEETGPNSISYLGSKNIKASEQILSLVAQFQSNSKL

As to `CCCCNC(=O)c1c(-c2ccccc2)nc(-c2ccc(C(O)(C(F)(F)F)C(F)(F)F)cc2)n1Cc1ccccn1`, the IC50 came out at 0.038 µM.

The values above are taken from patent US7279477B2 (Chugai Seiyaku Kabushiki Kaisha, priority 2001, dated 2007).
